In the test the target is T1, Aurora kinase A (Homo sapiens, UniProt O14965).
T1 sequence (O14965 whole entry): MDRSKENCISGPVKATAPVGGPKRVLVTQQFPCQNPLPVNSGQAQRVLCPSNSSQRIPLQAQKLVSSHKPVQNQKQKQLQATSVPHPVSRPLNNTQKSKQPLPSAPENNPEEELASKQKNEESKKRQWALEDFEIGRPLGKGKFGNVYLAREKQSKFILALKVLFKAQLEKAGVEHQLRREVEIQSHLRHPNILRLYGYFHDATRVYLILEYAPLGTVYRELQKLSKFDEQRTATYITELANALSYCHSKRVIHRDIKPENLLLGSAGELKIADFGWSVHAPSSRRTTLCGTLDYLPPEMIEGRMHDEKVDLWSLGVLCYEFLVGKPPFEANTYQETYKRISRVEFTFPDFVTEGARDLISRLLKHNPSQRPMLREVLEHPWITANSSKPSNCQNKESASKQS

The structures appear in SMILES notation.

By IC50 is commonly meant the midpoint of a concentration-inhibition curve. `FC(F)(F)c1cccc(Nc2ccnc(Nc3ccccc3)n2)c1`: the IC50 is 14.1 µM.

The record behind these values is ChEMBL document CHEMBL3886566, “Aurora kinase inhibitors and methods of making and using thereof” (2016).
